Test system: standard pool of bacteria, yeasts, and molds obtained from American Type Culture Collection (ATCC) that are common contaminants in coatings

| Structure (SMILES) | effectiveness in all heat-aged challenge tests | ability to act as a preservative | effectiveness as preservative for the aqueous dispersion of opaque polymers |
| --- | --- | --- | --- |
| OO [Example H2O2, hydrogen peroxide] | effective |  |  |
| CC(C)(C)OO [i-BHP, t-butyl hydroperoxide] |  | insufficient to act as a preservative | effective |
